Data on one compound can be found in ChEMBL document CHEMBL4359902, “Development of novel chromeno[4,3-c]pyrazol-4(2H)-one derivates bearing sulfonylpiperazine as antitumor inhibitors targeting PI3Kα” (Eur J Med Chem, 2019).

Sequences of proteins named here, by UniProt entry; tags and fusion partners are left off.
UniProt P42336, whole entry: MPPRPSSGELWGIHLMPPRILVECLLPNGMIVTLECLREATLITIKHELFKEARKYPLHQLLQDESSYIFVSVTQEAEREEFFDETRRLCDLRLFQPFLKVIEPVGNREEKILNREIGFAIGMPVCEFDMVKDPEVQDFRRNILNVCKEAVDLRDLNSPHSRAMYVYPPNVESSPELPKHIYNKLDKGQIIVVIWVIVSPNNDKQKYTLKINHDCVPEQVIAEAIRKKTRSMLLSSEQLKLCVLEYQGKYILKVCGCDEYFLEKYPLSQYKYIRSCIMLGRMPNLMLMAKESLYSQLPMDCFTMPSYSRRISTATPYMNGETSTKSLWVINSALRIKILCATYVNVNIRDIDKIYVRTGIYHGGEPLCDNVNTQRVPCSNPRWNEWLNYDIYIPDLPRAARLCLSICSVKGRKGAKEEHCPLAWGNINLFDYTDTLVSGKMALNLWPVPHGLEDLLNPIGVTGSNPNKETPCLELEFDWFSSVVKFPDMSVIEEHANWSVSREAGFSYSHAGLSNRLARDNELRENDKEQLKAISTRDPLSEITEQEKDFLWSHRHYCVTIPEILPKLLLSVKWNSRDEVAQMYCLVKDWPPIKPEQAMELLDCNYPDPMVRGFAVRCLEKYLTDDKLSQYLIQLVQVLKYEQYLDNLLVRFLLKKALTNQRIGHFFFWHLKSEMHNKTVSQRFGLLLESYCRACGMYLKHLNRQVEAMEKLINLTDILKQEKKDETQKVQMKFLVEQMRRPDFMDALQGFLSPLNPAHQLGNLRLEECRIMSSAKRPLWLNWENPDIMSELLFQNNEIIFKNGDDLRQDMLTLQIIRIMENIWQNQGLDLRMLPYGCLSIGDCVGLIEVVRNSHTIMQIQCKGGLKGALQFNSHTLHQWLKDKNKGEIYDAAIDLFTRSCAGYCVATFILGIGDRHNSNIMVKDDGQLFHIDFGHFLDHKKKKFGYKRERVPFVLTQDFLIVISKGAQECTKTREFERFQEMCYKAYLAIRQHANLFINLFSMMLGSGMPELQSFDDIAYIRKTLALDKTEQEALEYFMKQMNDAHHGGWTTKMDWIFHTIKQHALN

For assay [1], the species on record is Homo sapiens. Put plainly: Selectivity index, ratio of IC50 for PI3Kbeta (unknown origin) to IC50 for PI3Kalpha (unknown origin) using diC8-PI(4,5)P2 as substrate.
The species entered for assay [2] is Homo sapiens. Put plainly: Selectivity index, ratio of IC50 for PI3Kgamma (unknown origin) to IC50 for PI3Kalpha (unknown origin) using diC8-PI(4,5)P2 as substrate.
The species entered for assay [3] is Homo sapiens. The assay is described as follows: Selectivity index, ratio of IC50 for PI3Kdelta (unknown origin) to IC50 for PI3Kalpha (unknown origin) using diC8-PI(4,5)P2 as substrate.
The target of assay [4] is Phosphatidylinositol 4,5-bisphosphate 3-kinase catalytic subunit alpha isoform (Homo sapiens, UniProt P42336). Put plainly: Potency index, ratio of LY294002 IC50 to compound IC50 for inhibition of PI3Kalpha (unknown origin) using diC8-PI(4,5)P2 as substrate incubated for 3 hrs by fluorescence polarization assay. In general terms: Polarisation of emitted light reports the rotation of a fluorescent probe.

Take `O=c1oc2ccccc2c2nn(CN3CCN(S(=O)(=O)c4ccc(Cl)c([N+](=O)[O-])c4)CC3)cc12`: the Ratio IC50 in the assay listed under Homo sapiens [1] came out at 13; in the assay filed under Homo sapiens [2], 9; in the assay filed under Homo sapiens [3], 13; in assay [4] it was 53.
